These are literature values, as cited in patent publication US20030133972A1, “Targeted multivalent macromolecules” (priority 2000, published 2003).

Protein sequences, listed by entry. Tags and fused reporters are not part of them. Residues count along the entry.
UniProt P35968, 20-1356, species assumed: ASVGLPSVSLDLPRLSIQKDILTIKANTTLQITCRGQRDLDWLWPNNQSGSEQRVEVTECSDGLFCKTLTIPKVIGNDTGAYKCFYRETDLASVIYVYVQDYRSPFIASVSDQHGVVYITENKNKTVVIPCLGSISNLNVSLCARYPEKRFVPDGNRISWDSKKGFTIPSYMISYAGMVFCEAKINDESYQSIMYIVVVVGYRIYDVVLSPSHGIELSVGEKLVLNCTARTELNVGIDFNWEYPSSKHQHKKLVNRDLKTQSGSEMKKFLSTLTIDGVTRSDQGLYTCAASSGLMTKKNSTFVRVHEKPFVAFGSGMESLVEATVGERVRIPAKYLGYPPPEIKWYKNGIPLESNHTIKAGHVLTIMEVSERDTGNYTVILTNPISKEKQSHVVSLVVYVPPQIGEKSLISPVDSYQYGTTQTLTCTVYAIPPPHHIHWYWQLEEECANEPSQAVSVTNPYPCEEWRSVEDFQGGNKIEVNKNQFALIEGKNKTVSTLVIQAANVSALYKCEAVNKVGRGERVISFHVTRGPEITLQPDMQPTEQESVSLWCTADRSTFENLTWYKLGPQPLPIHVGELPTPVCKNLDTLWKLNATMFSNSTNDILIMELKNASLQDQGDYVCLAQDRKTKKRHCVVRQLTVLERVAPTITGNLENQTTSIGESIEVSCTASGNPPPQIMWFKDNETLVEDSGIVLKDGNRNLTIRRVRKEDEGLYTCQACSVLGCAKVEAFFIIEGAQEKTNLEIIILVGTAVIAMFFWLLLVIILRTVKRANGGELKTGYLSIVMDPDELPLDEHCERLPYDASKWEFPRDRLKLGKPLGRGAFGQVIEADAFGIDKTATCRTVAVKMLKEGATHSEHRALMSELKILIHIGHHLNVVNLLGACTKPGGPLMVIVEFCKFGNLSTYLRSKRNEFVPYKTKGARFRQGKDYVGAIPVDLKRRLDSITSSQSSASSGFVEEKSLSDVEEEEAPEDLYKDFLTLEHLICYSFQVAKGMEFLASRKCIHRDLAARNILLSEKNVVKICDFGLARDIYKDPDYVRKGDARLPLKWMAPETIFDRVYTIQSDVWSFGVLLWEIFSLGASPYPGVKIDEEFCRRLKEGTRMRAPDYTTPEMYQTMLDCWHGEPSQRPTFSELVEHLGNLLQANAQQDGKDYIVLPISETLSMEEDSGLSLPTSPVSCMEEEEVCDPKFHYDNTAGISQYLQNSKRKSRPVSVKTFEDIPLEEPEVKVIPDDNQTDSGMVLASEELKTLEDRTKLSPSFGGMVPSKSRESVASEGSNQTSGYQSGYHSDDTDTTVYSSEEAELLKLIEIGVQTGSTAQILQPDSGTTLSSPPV

The target of the data set is VEGFR2 (Homo sapiens, UniProt P35968). The conditions noted are these: cited from earlier work.

For VEGF, the Kd is 0.05 to 0.77 nM.

The Kd is a measure of binding affinity in units of concentration.
